The values that follow are results of earlier work, collected in patent publication US20050203105A1, “Composition and method for controlling alcohol-induced facial flushing in susceptible humans” (priority 2003, published 2005).

Each structure is given as a SMILES string.

Series [1] deals with muscarinic receptors.
For series [2] the following is noted: oral.

Take `COc1ccc(CN(CCN(C)C)c2ccccn2)cc1` [Pyrilamine]: the Anticholinergic activity result in series [1] is recorded as “±”.

Take `CN(C)CC[C@@H](c1ccc(Cl)cc1)c1ccccn1` [Dexchlorpheniramine]: the Anticholinergic activity entry in series [1] is listed as “++”. With `CC(CN1c2ccccc2Sc2ccccc21)N(C)C` (stereo not drawn) [Promethazine], the Anticholinergic activity result in series [1] is recorded as “+++”. `CN(C)CCC(c1ccc(Cl)cc1)c1ccccn1` (stereo not drawn) [Chlorpheniramine]: the Anticholinergic activity entry in series [1] was “++”. In the case of `COc1ccc(CCN2CCC(Nc3nc4ccccc4n3Cc3ccc(F)cc3)CC2)cc1` [Astemizole], the Anticholinergic activity entry in series [1] is recorded as “±”. Besides, the duration of effects entry in series [2] is “up to 24 hours”.
